Data as given in US20060172019A1 (priority 2003, published 2006).
Read-outs that look alike come from different tables or passages of the source.

Amino acid sequences for entries named in this document (tags omitted).
UniProt P34972, whole entry: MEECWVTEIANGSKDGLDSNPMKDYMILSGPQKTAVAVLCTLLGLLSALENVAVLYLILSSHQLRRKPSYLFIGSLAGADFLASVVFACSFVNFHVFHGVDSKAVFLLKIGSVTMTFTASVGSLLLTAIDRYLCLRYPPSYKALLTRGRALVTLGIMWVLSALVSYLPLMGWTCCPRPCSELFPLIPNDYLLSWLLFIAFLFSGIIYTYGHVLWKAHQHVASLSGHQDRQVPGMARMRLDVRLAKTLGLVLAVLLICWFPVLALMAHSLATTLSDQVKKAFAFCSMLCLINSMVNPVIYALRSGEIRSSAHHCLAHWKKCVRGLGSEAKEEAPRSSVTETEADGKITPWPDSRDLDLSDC

Columns and labels:
[1] = test system: rabbit osteoclasts; assay: Rabbit osteoclast culture; format: cell-based
[2] = test system: ovariectomy induced bone loss; assay: Ovariectomy induced bone loss, peripheral quantitative computed tomography; format: in vivo, C57/BL6 mice; conditions: 6 mg/kg daily injection, 21 days, pQCT, tibia
[3] = test system: osteoclasts; assay: cells; format: cell-based, mice; conditions: Mus musculus, Osteoclast, read-out: IC50, inhibition of osteoclast function and bone resorption
Source text: Osteoclast formation and activity was studied using an adaptation (see, e.g., van't Hof et al., 1997) of the osteoblast-bone marrow co-culture assay originally described previously (see, e.g., Takahashi et al., 1988). This is another experimental model system to screen for osteoclast-inhibitor and osteoclast-stimulatory agents.
Osteoblasts were isolated from the calvarial bones of 2-day-old mice by sequential collagenase digestion (type I collagenase, Sigma) and cultured in αMEM supplemented with 10% FCS and penicillin and streptomycin at 37° C. in 5% CO2. Bone marrow cell populations containing osteoclast precursors were isolated from the long bones of 3-5 month old mice and erythrocytes were removed by Ficoll Hypaque density gradient centrifugation. The resulting bone marrow cells were washed with PBS and resuspended in culture medium.
Osteoblasts and bone marrow cells were plated at 10^4 cells/well and 2×10^5 cells/well, respectively, in 96-well plates in 150 μL of αMEM supplemented with 10% FCS, antibiotics and 10 nM 1,25-dihydroxyvitamin D3. Test substances were added on day 7 and the cultures were terminated on day 10. At the end of the culture period, osteoclasts were identified by TRAcP staining and resorption pits were quantified by reflected light microscopy, as described above.

[4] = test system: mouse osteoblasts; assay: Mouse osteoblast culture (Alamar Blue); format: cell-based; conditions: 72 hours, n=3
[5] = test system: J774 murine macrophage cells; assay: Alamar Blue J774 murine macrophage viability assay; format: cell-based
[6] = target: CB2 receptor (Homo sapiens, UniProt P34972); conditions: Table 1; cited from earlier work

For Cc1c(C(=O)NN2CCCCC2)nn(-c2ccc(Cl)cc2Cl)c1-c1ccc(I)cc1 [AM251], the “survival and resorptive activity of authentic rabbit osteoclasts” value [1] was “inhibit”, the “survival of tartrate resistant acid phosphatase positive multinucleated osteoclasts (TRAcP MNC)” value ([1]; 10 μM (p<0.03) and 20 μM (p<0.01), 48 hours) was “inhibited” and the “ovariectomy-induced bone loss, trabecular density” value [2] was “very effective at reversing the bone loss”. The IC50 [3] was about 5 µM, the osteoblast survival [4] was “highly potent” and the IC50 ([5]; Mus musculus, J774, 72 h, read-out: IC50, J774 survival) was about 5 µM. The IC50 ([5]; Mus musculus, J774, read-out: IC50 in J774 cells) was 5 µM, the IC50 ([5]; read-out: IC50, J774 survival) was about 7 µM and the Ki [6] was 2000 nM.
